In ChEMBL document CHEMBL1124697, “A new family of water-soluble, third generation antitumor platinum complexes” (J Med Chem, 1989):

Test: Water solubility was determined
Type: ADME
Settings: buffer

Substance | Water solubility
Platinum:9,9-Dichloro-2,4-dioxa-8,10-diaza-spiro[5.5]undecane | 500 µg/mL
Platinum:9,9-Dichloro-3-methyl-2,4-dioxa-8,10-diaza-spiro[5.5]undecane | 100 µg/mL
